# From patent US9856300B2, “Dpy-30 binding peptides and methods of use” (Marquette University, priority 2011, dated 2018)
# By UniProt entry, the sequences of proteins in these tests, tags left out. Residues count along the entry.
# UniProt P00514, 1-81: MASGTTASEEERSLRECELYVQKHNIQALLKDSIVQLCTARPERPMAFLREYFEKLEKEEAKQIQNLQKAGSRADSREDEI
# Experiments:
# Dpy-30 (Homo sapiens) = biological target: T1, Dpy-30 (Homo sapiens); assay: Ni-NTA pulldown of GST-hAsh2 peptides with His-Dpy-30; assay type: binding; parameters: key to co-purified with Dpy-30: “+” or “−” indicates if the peptides were or were not evidently co-purified with Dpy-30; “+” or “−” indicates if the peptides were or were not evidently co-purified with Dpy-30
# T1 construct: Dpy-30 fragments, full length or a.a.#49-99, were amplified using purchased IMAGE cDNA clone #4081996 as a template; made in house; host or cells: E. coli BL21(DE3)
# Excerpt: To test this, we performed pull down assays for His-Dpy-30 and GST-hAsh2593-623. The human Ash2 fragment contains a helix with two typical and three atypical ΦΦXX motifs. The hAsh2 DNA was fused downstream to GST DNA by PCR and the product was cloned into an expression vector. Three clones—#9 and #14 with the expected in-frame fusion and #6 with an out-of-frame fusion—were expressed in bacteria. Their extract was mixed with equal volume of bacterial extract with His-Dpy-30; and the mixture was subjected to Ni-NTA purification. […] Thus hAsh2593-623 interacts with Dpy-30 specifically.
# Table 3 illustrates the protein sequences of hAsh2's C-terminal region (hAsh2593-623) and its variants, where “+” or “−” indicates if the peptides were or were not evidently co-purified with Dpy-30. The shorter fusion protein GST-hAsh2593-617 that terminated right after the last possible ΦΦXX-like motif, VETE (SEQ ID NO:35), in the helix was also co-purified with His-Dpy-30 (FIG. 11B, arrow and double arrowheads), no matter expressed separately or co-expressed. Both polypeptides were depleted in the flow through of Ni-NTA matrix (Post in FIG. 11B) and retained in the eluate.
# All expression constructs were transformed or co-transformed into BL21(DE3) cells. The colonies were selected based on the antibiotic-resistant gene in each plasmid. The cultures were induced with 1 mM IPTG overnight at 18° C. […]
# [1] = biological target: T2, Dpy-30 D/D (a.a. #[…]) (Homo sapiens); assay: Ni-NTA pulldown of GST-hAsh2 peptides with His-Dpy-30 D/D; assay type: binding; conditions: His-Dpy-30 D/D a.a. #[…] co-expressed
# T2 construct: His-Dpy-30 D/D (a.a. #49-99) was co-expressed with GST-hAsh2593-623; made in house; host or cells: E. coli BL21(DE3)
# Excerpt: To differentiate if the interaction is via the Dpy-30 domain or the N-terminal fragment, His-Dpy-30 D/D (a.a. #49-99) was co-expressed with GST-hAsh2593-623 (FIG. 11C). To define the N-terminal end of Dpy-30 D/D binding site in hAsh2, W599 in the first potential ΦΦXX motif was mutated into P to disrupt helicity, an approach to abolish D/D-binding (Carr et al., 1982; Burns-Hamuro et al., 2003). […] Thus, the site that directly binds Dpy-30 D/D resides within hAsh2600-617 that is after W599 and contains four ΦΦXX-like motifs, even though an acidic residue occupies a supposedly hydrophobic position in the last motif, VETE (SEQ ID NO:35). The affinity may be further enhanced by adjacent sequences (Burns-Hamuro et al., 2003; Banky et al., 2003).
# All expression constructs were transformed or co-transformed into BL21(DE3) cells. The colonies were selected based on the antibiotic-resistant gene in each plasmid. The cultures were induced with 1 mM IPTG overnight at 18° C. The cell pellet from a 5-ml culture was resuspended in 750-μl lysis buffer supplemented with Complete Mini EDTA-free protease inhibitor cocktail tablets (Roche) and the suspension was sonicated on ice using Branson digital Sonifier until clarified (Emerson Industrial Automation). The sonicated mixtures were centrifuged at 4° C., 12,000 rpm for 25 min. […]
# RIα D/D (a.a.#1-81) = biological target: T3, RIα D/D (a.a.#1-81) (Bos taurus, UniProt P00514); assay: Ni-NTA pulldown with His-RIα D/D; assay type: binding, bovine
# T3 construct: made in house; host or cells: E. coli BL21(DE3); template pRSETB-RIα from Dr. Susan Taylor
# Excerpt: (§1) Most AHs are mono-specific to RIIα D/D except a few that are either RIα D/D-specific (Angelo and Rubin, 1998; Means et al., 2011; Welch et al., 2010) or dual specific, binding to both (Huang et al., 1997; Jarnaess et al., 2008). To test if hAsh2 AH can cross-react with PKA's D/D, we created constructs expressing the D/D domain and the flanking sequences from bovine RIα (a.a.#1-81) and mouse RIIα (a.a.#1-64). His-RIα D/D or His-RIIα D/D was co-expressed with GST-RSP396-180, which contains the AH (RSP3160-178) that bind RII in the overlay assay (Gaillard et al., 2001). […] In the eluate, the ratio of RSP396-180-RIα D/D was the lowest, followed by RSP396-180-RIIα D/D and then RSP396-180-RIIα D/D from RSP7, the de facto partner of RSP3. Although RSP396-180 in the extract was also the most concentrated when co-expressed with RSP7's RIIα, this likely is due to effective binding of RSP7's D/D, protecting GST-RSP396-180 from proteolysis, which occurred when GST-RSP396-180 was expressed by itself (not shown). Similarly, when co-expressed with GST-hAsh2593-623, RIα D/D and RIIα D/D were depleted in the flow through but few polypeptides, especially RIIα D/D, were present in the eluate (FIG. 12A, right panel, compare Extract, Post and Elute).
# Although both RIα D/D and Dpy-30 D/D have a common α0 helix (Wang et al., 2009), GST-hAsh2593-623 cross reacted with RIα D/D poorly. We wondered if this was due to disulfide bonds via the conserved cysteine residues in RIα D/D in oxidative states. To test this, the samples from repeated experiments were analyzed in the non-reducing SDS-PAGE. […] To test if the presence of a reducing agent would improve the association, Ni-NTA pulldown was conducted in the presence of 5 mM β-mercaptoethanol.
# To test if the 300 mM NaCl in all buffers for Ni-NTA affinity purification dissociated the cross-recognition, the NaCl concentration was decreased to 100 mM. […]
# [2] = biological target: T4, RIIα D/D (a.a.#[…]) (Mus musculus, S2G); assay: Ni-NTA pulldown with His-RIIα D/D; assay type: binding
# T4 construct: made in house; host or cells: E. coli BL21(DE3); template pRSETB-RIIα from Dr. Susan Taylor
# Excerpt: as §1, with “Elute). […]” for “Elute).”
# [3] = test system: Dpy-30 D/D, RIα D/D, RIIα D/D; assay: Glutathione Sepharose purification of GST-hAsh2593-623 from mixtures of two D/D domains; assay type: binding; conditions: equal volumes of extracts mixed, excessive RIα and RIIα
# Protocol: To test if the 300 mM NaCl in all buffers for Ni-NTA affinity purification dissociated the cross-recognition, the NaCl concentration was decreased to 100 mM. […] To directly compare the association, all fusion proteins were expressed separately, and equal volume of the extracts containing RIα D/D, Dpy-30 D/D, and GST-hAsh2593-623 were mixed together and then with Glutathione Sepharose. A parallel experiment was conducted with RIα D/D, RIIα D/D and GST-hAsh2593-623.
# All expression constructs were transformed or co-transformed into BL21(DE3) cells. The colonies were selected based on the antibiotic-resistant gene in each plasmid. The cultures were induced with 1 mM IPTG overnight at 18° C. The cell pellet from a 5-ml culture was resuspended in 750-μl lysis buffer supplemented with Complete Mini EDTA-free protease inhibitor cocktail tablets (Roche) and the suspension was sonicated on ice using Branson digital Sonifier until clarified (Emerson Industrial Automation). The sonicated mixtures were centrifuged at 4° C., 12,000 rpm for 25 min. The supernatant or combinations of supernatants as indicated were incubated with ˜100 μl Ni-NTA (Qiagen or Clontech) or Glutathione Sepharose 4B (Amersham Biosciences) for 1 hour at room temperature. The matrix was subsequently washed as instructed by manufacturers, unless indicated otherwise.
# [4] = NaCl decreased from 300 mM to 100 mM
sequence,measurement,setting,value
"PMSDMGWGAVVEHTLADVLYHVETEVDGRRS (GST fusion; listed as Homo sapiens) [hAsh2593-623, human Ash2 C-terminal fragment a.a; 593-623, expressed and tested as a GST fusion protein]",co-purified with Dpy-30,"Dpy-30 (Homo sapiens); GST-fused hAsh2 peptides, Ni-NTA pulldown, Coomassie-stained SDS-PAGE",+
same,co-purification with His-Dpy-30,"Dpy-30 (Homo sapiens); full-length His-Dpy-30, Ni-NTA, result in words",co-purified
same,co-purification with the Dpy-30 domain,[1],still co-purified
same,pulldown with RIα D/D in the presence of a reducing agent,RIα D/D (a.a.#1-81); 5 mM β-mercaptoethanol,did not increase the pulldown
same,co-purification with RIα D/D at lower salt,RIα D/D (a.a.#1-81); [4],not
same,co-purification with His-RIα D/D,"RIα D/D (a.a.#1-81); Ni-NTA, 300 mM NaCl buffers, listed as GST-hAsh2593-623",poorly; also recorded: A small fraction
same,co-purification with RIIα D/D at lower salt,[2]; [4],enhance the co-purification
same,co-purification with His-RIIα D/D,"[2]; Ni-NTA, 300 mM NaCl buffers",negligible
same,D/D domain pulled down from mixed extracts (selectivity),[3],only Dpy-30 domain was obviously pulled down

# “Also recorded” adds a separate entry of the source.
